The species entered for this assay is Homo sapiens. The assay can be described thus: Selectivity ratio of IC50 for human A549 cells to IC50 for recombinant human GSK3beta.

SMILES strings stand for the structures.

`O=C1Nc2ccccc2/C1=C/c1ccccn1`: the Ratio IC50 came out at 1000.

Source of the values: ChEMBL document CHEMBL4392829, “Synthesis and biological evaluation of 3-substituted 2-oxindole derivatives as new glycogen synthase kinase 3β inhibitors” (Bioorg Med Chem, 2019).
